Data taken from patent publication US20060240535A1, “Carbonyl reductase from lactococcus lactis” (GEORGIA TECH RESEARCH CORPORATION, priority 2004, published 2006).

By UniProt entry, the sequences of proteins in these tests, tags left out.
UniProt Q9CJ60, entry or part of it: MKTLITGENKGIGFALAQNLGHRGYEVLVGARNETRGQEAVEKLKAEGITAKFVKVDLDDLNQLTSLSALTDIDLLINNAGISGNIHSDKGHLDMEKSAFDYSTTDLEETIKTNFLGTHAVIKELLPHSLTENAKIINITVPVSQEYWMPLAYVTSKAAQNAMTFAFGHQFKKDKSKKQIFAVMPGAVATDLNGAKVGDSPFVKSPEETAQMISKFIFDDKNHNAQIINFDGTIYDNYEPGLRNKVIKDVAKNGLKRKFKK

Molecular target: carbonyl reductase from Lactococcus lactis (LL-CR) (Lactococcus lactis, UniProt Q9CJ60)
Test: Purified CRLL activity in aqueous-organic tunable solvents (OATS)
Assay type: biochemical
Details: acetonitrile, dioxane, or tetrahydrofuran
Procedure: As LL-CR requires organic buffers for stability, such as HEPES or triethanolamine, runs were conducted in partially organic systems using a buffer system of 200 mM NH4CHO3 and 50 mM HEPES at pH 7.0.

NADPH
organic solvent content at which stable: ≤ 60%
